Assay results published in US11065343B2, “Compound bearing beta-galactoside-introduced self-immolative linker” (IntoCell Inc., priority 2016, dated 2021).

System: SKBR-3 cancer cell line
Assay: In vitro cytotoxicity of antibody-drug conjugates (MTT)
Type: cell-based
Details: SKBR-3, 96 hours
Protocol: SKBR-3 cancer cell line was seeding to a 96-well plate in 2,000 to 8,000 per well and was cultured for 24 hours. Ab-17 and Ab-18 obtained in Test Example 6 were treated with a serial dilution in 1/4 from 50 nM to 0.0008 nM, and control drug T-DM1 (Roche CAS No. 1018448-65-1) was treated with a serial dilution in 1/4 from 50 nM to 0.0008 nM. Live cells after 96 hours were quantified by dissolving MTT dye in a buffer solution to be 5 mg/mL and then adding it in 1/10 to each well of the plate. Formazan formed by a reduction of MTT dye with mitochondria oxidoreductase in the cell was dissolved in DMSO, and a quantification was conducted by measuring an absorbance at 550 nm, and the results were shown in Table 3 below.

TDM-1
IC50: 0.021 nM
